Target: T1, mitochondrial ATP synthase (ETC Complex V) in rat liver submitochondrial particles (Rattus norvegicus, UniProt P10719+P15999)
T1 construct: rat liver submitochondrial particles (SMP) prepared from male Sprague-Dawley rat livers; from tissue; host or cells: male Sprague-Dawley rat liver, submitochondrial particles (method of Walker et al. 1995)
Test: Oligomycin-sensitive ATPase (ATP hydrolase) activity in rat liver submitochondrial particles (SMP)
Type: biochemical
Details: preincubation pH 6.7, values omitted from FIG. 12, read-out: IC50 for inhibition of SMP ATPase (dose-response)
Protocol: The IF1(42-58) polypeptide was also tested for its ability to inhibit the F0-F1-ATPase in rat ASMPs (alkaline submitochondrial particles) prepared as in the preceding Example. […] ATP hydrolase activity was expressed as the percent of detectable activity in the absence of added IF1-containing fusion protein, and the level of oligomycin-inhibitable activity was also determined (FIG. 8).
The effects of the IF1 peptides on ATPase activity were determined by assaying ATPase in rat liver submitochondrial particles (SMP) prepared from male Sprague-Dawley rat livers according to the method of Walker et al. (1995 Meth. Enzymol. 260:163-190). […] Louis, Mo., unless otherwise noted) for 10 min at room temperature. The mixtures were then added to assay buffer (50 mM Tris-HCl, 3.3 mM MgCl2, pH 8.0) in a 96-well plate and ATPase activity was initiated by the addition of 1 mM ATP, 1 mM phophoenolypyruvate, 3 U/ml pyruvate kinase, 10 U/ml lactate dehydrogenase and 0.3 mM NADH. Reactions were monitored by recording absorbance in “kinetic read” mode at 340 nm for 10 min at 30° C. in a termperature-controlled Spectromax Plus-384™ 96-well plate reader (Molecular Devices, Inc., Sunnyvale, Calif.) according to the manufacturer's instructions. In this mode, the plate reader recorded an absorbance value for each well at approximately nine-second intervals. […]

By UniProt entry, the sequences of proteins in these tests, tags left out. Where a name states a change or a piece, a line headed by the entry shows the natural chain unless it says otherwise.
UniProt P10719: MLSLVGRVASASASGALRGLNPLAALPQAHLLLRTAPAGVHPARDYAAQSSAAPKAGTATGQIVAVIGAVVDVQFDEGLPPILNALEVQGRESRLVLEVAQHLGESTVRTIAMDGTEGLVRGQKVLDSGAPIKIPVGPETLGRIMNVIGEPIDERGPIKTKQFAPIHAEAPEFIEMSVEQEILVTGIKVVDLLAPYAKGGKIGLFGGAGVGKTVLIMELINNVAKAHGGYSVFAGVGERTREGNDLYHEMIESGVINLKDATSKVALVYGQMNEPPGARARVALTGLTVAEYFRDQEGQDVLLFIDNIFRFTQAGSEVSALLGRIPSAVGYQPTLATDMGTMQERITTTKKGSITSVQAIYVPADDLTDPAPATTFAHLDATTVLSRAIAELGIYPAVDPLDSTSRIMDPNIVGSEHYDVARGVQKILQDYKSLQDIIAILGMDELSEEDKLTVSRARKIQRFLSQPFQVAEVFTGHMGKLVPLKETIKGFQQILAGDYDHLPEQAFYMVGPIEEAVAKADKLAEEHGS
UniProt P15999: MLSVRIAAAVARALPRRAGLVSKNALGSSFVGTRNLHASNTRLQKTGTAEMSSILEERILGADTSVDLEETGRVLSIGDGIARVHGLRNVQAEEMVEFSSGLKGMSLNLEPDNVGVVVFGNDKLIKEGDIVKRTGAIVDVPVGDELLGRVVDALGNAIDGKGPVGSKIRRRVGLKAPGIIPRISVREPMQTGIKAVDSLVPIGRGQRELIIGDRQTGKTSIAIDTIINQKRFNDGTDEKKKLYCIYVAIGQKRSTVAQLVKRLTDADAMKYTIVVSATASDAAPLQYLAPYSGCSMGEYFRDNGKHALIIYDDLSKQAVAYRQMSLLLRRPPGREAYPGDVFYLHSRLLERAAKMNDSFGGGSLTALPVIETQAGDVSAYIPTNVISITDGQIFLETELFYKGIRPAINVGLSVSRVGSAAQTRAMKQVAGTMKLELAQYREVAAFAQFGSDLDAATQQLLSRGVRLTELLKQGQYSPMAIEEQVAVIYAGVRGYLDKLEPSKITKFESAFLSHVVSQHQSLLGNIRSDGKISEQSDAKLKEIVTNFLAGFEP

Row | Compound | IC50 [nM]
1 | CC[C@H](C)[C@H](NC(=O)[C@@H](N)CO)C(=O)N[C@@H](CCCNC(=N)N)C(=O)N[C@@H](CCC(=O)O)C(=O)N[C@@H](C)C(=O)NCC(=O)NCC(=O)N[C@@H](C)C(=O)N[C@@H](Cc1ccccc1)C(=O)NCC(=O)N[C@@H](CCCCN)C(=O)N[C@@H](CCCNC(=N)N)C(=O)N[C@@H](CCC(=O)O)C(=O)N[C@@H](CCCCN)C(=O)N[C@@H](C)C(=O)N[C@@H](CCC(=O)O)C(=O)N[C@@H](CCC(=O)O)C(=O)N[C@@H](CC(=O)O)C(=O)N[C@@H](CCCNC(=N)N)C(=O)N[C@@H](Cc1ccc(O)cc1)C(=O)N[C@@H](Cc1ccccc1)C(=O)N[C@@H](CCCNC(=N)N)C(=O)N[C@@H](CCC(=O)O)C(=O)N[C@@H](CCCCN)C(=O)N[C@H](C(=O)N[C@@H](CCCNC(=N)N)C(=O)N[C@@H](CCC(=O)O)C(=O)N[C@@H](CCC(N)=O)C(=O)N[C@@H](CC(C)C)C(=O)O)[C@@H](C)O [14-42] | > 2600
2 | CC[C@H](C)[C@H](NC(=O)[C@@H](N)CO)C(=O)N[C@@H](CCCNC(=N)N)C(=O)N[C@@H](CCC(=O)O)C(=O)N[C@@H](C)C(=O)NCC(=O)NCC(=O)N[C@@H](C)C(=O)N[C@@H](Cc1ccccc1)C(=O)NCC(=O)N[C@@H](CCCCN)C(=O)N[C@@H](CCCNC(=N)N)C(=O)N[C@@H](CCC(=O)O)C(=O)N[C@@H](CCCCN)C(=O)N[C@@H](C)C(=O)N[C@@H](CCC(=O)O)C(=O)N[C@@H](CCC(=O)O)C(=O)N[C@@H](CC(=O)O)C(=O)N[C@@H](CCCNC(=N)N)C(=O)N[C@@H](Cc1ccc(O)cc1)C(=O)N[C@@H](Cc1ccccc1)C(=O)N[C@@H](CCCNC(=N)N)C(=O)N[C@@H](CCC(=O)O)C(=O)N[C@@H](CCCCN)C(=O)N[C@H](C(=O)N[C@@H](CCCNC(=N)N)C(=O)N[C@@H](CCC(=O)O)C(=O)N[C@@H](CCC(N)=O)C(=O)N[C@@H](CC(C)C)C(=O)N[C@@H](C)C(=O)O)[C@@H](C)O [14-43] | > 1500

Reference: patent publication US20030026781A1, “Compositions and methods for regulating endogenous inhibitor of ATP synthase, including treatment for diabetes” (MitoKor, priority 1999, published 2003)
